Reference: patent US8236818B2, “Substituted imidazopyridine derivatives as melanocortin-4 receptor antagonists” (Santhera Pharmaceuticals (Schweiz) AG, priority 2007, dated 2012)

Protein sequences, listed by entry. Tags and fused reporters are not part of them.
UniProt P32245, whole entry: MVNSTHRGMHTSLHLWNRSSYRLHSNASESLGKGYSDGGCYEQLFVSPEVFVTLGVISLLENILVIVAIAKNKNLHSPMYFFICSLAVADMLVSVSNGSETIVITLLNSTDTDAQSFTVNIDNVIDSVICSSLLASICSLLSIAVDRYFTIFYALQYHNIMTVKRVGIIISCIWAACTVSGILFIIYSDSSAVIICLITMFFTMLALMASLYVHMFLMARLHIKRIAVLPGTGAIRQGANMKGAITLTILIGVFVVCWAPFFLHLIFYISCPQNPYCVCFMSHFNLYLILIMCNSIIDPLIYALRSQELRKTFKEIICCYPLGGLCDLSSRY

Molecular target: melanocortin-4 receptor (Homo sapiens, UniProt P32245)
Assay: Membrane binding assay (fluorescence polarization, competition with fluorescence labeled NDP-alpha-MSH)
[1] = read-out: hMC-4R binding assay IC50/μM, HEK293 cell membrane preparations, tested form: HCl

Compound	IC50 [1] [µM]	other results
CC(C)CCN(CCC(C)C)C(=O)c1ccc2nc(-c3ncco3)c(CCCN(C)CCF)n2c1	–	IC50 (read-out: hMC-4R binding assay IC50/μM, HEK293 cell membrane preparations, tested form: HCOOH): 0.1 to 1 µM
CC(C)CCN(CCC(C)C)C(=O)c1ccc2nc(-c3ccc(Cl)c(Cl)c3)c(CN3CCC(N)CC3)n2c1	0.1 to 1	–
CC(C)CCN(CCC(C)C)C(=O)c1ccc2nc(-c3ccc(C#N)cc3)c(CN3CCCNCC3)n2c1	–	IC50 (read-out: hMC-4R binding assay IC50/μM, HEK293 cell membrane preparations, tested form: hydrochloride): 0.1 to 1 µM
CC(C)CCN(CCC(C)C)C(=O)c1ccc2nc(-c3ccc(Cl)cc3)c(CN3CCCNCC3)n2c1	0.1 to 1	–

Like-named read-outs stand apart in the source and are kept apart here.
